SMILES strings stand for the structures.

Protein sequences, listed by entry. Tags and fused reporters are not part of them. Lines headed by an entry give the natural chain unless they say otherwise; changes in a name come on top.
UniProt P35218: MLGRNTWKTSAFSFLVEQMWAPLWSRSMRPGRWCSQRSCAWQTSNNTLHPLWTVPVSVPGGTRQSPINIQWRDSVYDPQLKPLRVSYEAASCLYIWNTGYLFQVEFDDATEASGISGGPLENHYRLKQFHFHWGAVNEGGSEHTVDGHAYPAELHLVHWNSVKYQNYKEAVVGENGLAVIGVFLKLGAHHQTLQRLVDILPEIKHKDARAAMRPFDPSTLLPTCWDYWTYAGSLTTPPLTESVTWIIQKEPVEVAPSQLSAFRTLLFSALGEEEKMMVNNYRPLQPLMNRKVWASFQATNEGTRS
UniProt Q9Y2D0: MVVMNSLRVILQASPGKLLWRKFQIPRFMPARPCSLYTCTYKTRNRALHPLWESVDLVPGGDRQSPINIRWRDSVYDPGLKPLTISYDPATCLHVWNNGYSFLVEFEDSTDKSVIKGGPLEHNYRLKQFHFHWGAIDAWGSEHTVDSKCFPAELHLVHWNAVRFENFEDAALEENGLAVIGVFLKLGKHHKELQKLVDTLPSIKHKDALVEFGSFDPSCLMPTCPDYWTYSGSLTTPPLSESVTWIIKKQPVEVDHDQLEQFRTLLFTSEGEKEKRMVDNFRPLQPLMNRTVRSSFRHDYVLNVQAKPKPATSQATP

The values that follow come from ChEMBL document CHEMBL1139064, “Carbonic anhydrase activators: an activation study of the human mitochondrial isoforms VA and VB with amino acids and amines” (Bioorg Med Chem Lett, 2007).

For experiment [1], the target named is Carbonic anhydrase 5A, mitochondrial (Homo sapiens) (UniProt P35218). In words: Activation of human recombinant carbonic anhydrase 5A by stopped-flow CO2 hydrase method.
In experiment [2] the target is Carbonic anhydrase 5B, mitochondrial (Homo sapiens) (UniProt Q9Y2D0). In words: Activation of human recombinant carbonic anhydrase 5B by stopped-flow CO2 hydrase method.

Regarding `N[C@@H](Cc1ccccc1)C(=O)O`, the KA in experiment [1] was found to be 9.81 µM; in experiment [2], 10.4 µM.
For `N[C@H](Cc1ccccc1)C(=O)O`, the KA in experiment [2] is 0.072 µM.
